Assay outcomes deposited in PubChem by National Center for Advancing Translational Sciences (NCATS).
Sampled rows, rich in hits. Any-hit rate of the full collection: about 16%.
miR-21 reporter: miR-21 reporter, rising signal | HeLa miR-21 FLuc reporter, luciferase, 48 h | Potency, µM (highest dose often 38.3 µM), for inactives: at the top dose reporter change, positive = more light | 340,000 tested, under 10 active | AID 2288; active = well fitted rising curve with a large enough effect; inconclusive = small, poorly fitted or top-dose-only effect; inactive = no such curve, though single readings can be large or run the other way;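 further: % of control where 0% means no effect; miR-21 action dims this reporter so a rising signal means less miR-21 action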
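Using DMEM plus 10% FBS, HeLa miR-21-FLuc cells are incubated with test compounds (final up to about 40uM) for 48 hours; firefly luciferase signal is then imaged following reagent-mediated lysis.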
TDP1 cell CPT: growth inhibition of DT40 Tdp1-/-;hTDP1 cells with camptothecin (screen for TDP1 inhibitors). chicken DT40 Tdp1-/-;hTDP1 cells + 20 nM CPT, ATP luminescence, 48 h. Potency, µM (titrated, usually from 46.2 µM), inactives show at the highest dose activity change, negative = growth inhibition, hits mostly inhibitors. hit rate 12% among 420,000; note: potency is the fitted concentration of half-maximal effect; % is set by controls: 0 for no effect and ±100 for the full control effect; nearly all actives have a fitted effect of over 55% in size
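Cell growth measured by CellTiter-Glo luminescence after a minimum 48 h, 37 C compound exposure with 20 nM CPT in Tdp1-knockout DT40 cells stably expressing hTDP1, seeded 400/well; qHTS titration format.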
TDP1 inh: inhibitors of human tyrosyl-DNA phosphodiesterase TDP1 | Q9NUW8 | recombinant TDP1, AlphaScreen DNA substrate cleavage | Potency, µM (top dose mostly 130 µM), for the others: top-dose activity change, negative = inhibition, actives largely listed as inhibitors | hit rate 0.28% among 350,000 | AID 485290; note: potency is the fitted concentration of half-maximal effect; % is set by controls: 0 for no effect and ±100 for the full control effect; nearly all actives have a fitted effect of over 40% in size
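Recombinant human Tdp1 (E. coli-expressed, 1 nM final) preincubated with compounds 15 min at room temperature, then 5'-biotin/3'-phosphotyrosine-FITC DNA substrate (15 nM final) added for 5 min. AlphaScreen beads (10 ug/ml final) added 10 min; cleavage lowers signal.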
uPA surface inh: blocks generation of uPA at the cell surface; Potency, µM (top dose mostly 38.3 µM), inactives show top-dose activity change, negative = inhibition, actives largely listed as inhibitors; cell surface uPA generation assay, qHTS; hit rate 0.31% among 330,000; AID 540303; active = well fitted inhibition curve with a large enough effect; inconclusive = small, poorly fitted or top-dose-only effect; inactive = no such curve, though single readings can be large or run the other way; tested in mouse RAW 264.7 cells; note: potency is the fitted concentration of half-maximal effect; % is set by controls: 0 for no effect and ±100 for the full control effect; nearly all actives have a fitted effect of over 55% in size
DT40 TDP1 no CPT: qHTS for Inhibitors of human tyrosyl-DNA phosphodiesterase 1 (TDP1): qHTS in cells in absence of CPT | hit rate 15% among 420,000 | Potency, µM (top dose mostly 46.2 µM), inactives show at the top dose activity change, negative = growth inhibition, most hits filed as inhibitors | DT40 Tdp1-/- hTDP1 cells, no CPT, ATP luminescence, 48 h; note: potency is the fitted concentration of half-maximal effect; % is set by controls: 0 for no effect and ±100 for the full control effect; nearly all actives have a fitted effect of over 55% in size
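Compound effects on proliferation are scored in DT40 Tdp1-/-;hTDP1 cells in the absence of CPT. ATP levels (CellTiter-Glo luminescence) are recorded after a ≥48 hr, 37 °C incubation.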
The depositor's hits bear a star; u = inconclusive; x = not tested or not shown; [ ] = remark or other dose. Unless noted, calls come from the whole dose curve; as a rule, active = well fitted curve in the direction sought with a large enough effect; inconclusive = small, poorly fitted or top-dose-only effect, or another doubt; inactive = no such curve, though single readings can be large; an effect the other way counts as inactive or inconclusive.

SMILES	miR-21 reporter	TDP1 cell CPT	TDP1 inh	uPA surface inh	DT40 TDP1 no CPT
OC(c1ccc2c(c1)CN(Cc1cccn1-c1cccnc1)CCO2)C1CCCCC1 (stereo unspecified)	x	u	x	x	-29%
COc1cc(OC)cc(C(=O)Nc2cc(-c3nc4ccccc4[nH]3)ccc2C)c1	26%	x	8%	x	x
COc1ccc(N2CCN(C(=O)CN(c3ccccc3)S(=O)(=O)c3ccc(OC)cc3)CC2)cc1	2%	u	5%	-3%	21µM*
Cc1ccc(S(=O)(=O)N=Nc2c(O)[nH]c3ccccc23)cc1	0%	-26%	-7%	-3%	-1%
Cc1ccc(S(=O)(=O)N(CC(=O)N2CCc3ccccc3C2)c2ccc(Cl)c(Cl)c2)cc1	8%	u	-5%	1%	u
CN(CC(=O)N1CCCC1)S(=O)(=O)c1ccc2ccccc2c1	-4%	u	3%	-3%	21µM*
O=C(CN(c1ccc(Cl)c(Cl)c1)S(=O)(=O)c1ccccc1)N1CCc2ccccc2C1	5%	u	5%	-4%	29µM*
Cc1ccc(S(=O)(=O)N(CC(=O)N=Nc2c(O)[nH]c3ccccc23)c2ccc(C)c(C)c2)cc1	23%	18µM*	11%	-6%	21µM*
COc1ccc(S(=O)(=O)N(C)CC(=O)N2CCN(c3ccccc3)CC2)cc1	2%	-7%	x	-1%	-23%
COc1cc(C2CC(=O)Oc3c(C(C)C)ccc(C)c32)cc(OC)c1OC (stereo unspecified)	x	x	5%	x	x
COCC(=O)Nc1cc(C(=O)N2CC3CCC2C3)c2c(c1)nc(-c1ccncc1)n2C (stereo unspecified)	x	9%[9.04 µM]	x	x	-4%
COc1ccccc1N(CC(=O)N1CCCC1)S(=O)(=O)c1cc([N+](=O)[O-])ccc1Cl	x	16µM*	3%	-24%	u
COc1ccc(S(=O)(=O)N(C)CC(=O)N2CCN(c3ccc(F)cc3)CC2)cc1OC	-5%	u	6%	x	22µM*
COc1ccc(N(CC(=O)N2CCN(C)CC2)S(=O)(=O)c2ccccc2)cc1	-1%	3%	x	-2%	9%
COc1ccccc1N(CC(=O)N1CCCC1)S(=O)(=O)c1ccc(C)cc1	1%	-2%	0%	0%	-23%
COc1ccccc1N(CC(=O)N1CCN(c2ccc(F)cc2)CC1)S(=O)(=O)c1ccc(C)cc1	-1%	26µM*	5%	18%	18µM*
COc1ccc(N2CCN(C(=O)CN(c3ccc(OC)cc3)S(=O)(=O)c3ccccc3)CC2)cc1	-2%	13µM*	10%	-7%	23µM*
O=C(CNC(=O)c1ccccc1)NCC(=O)OCC(=O)c1ccccc1Cl	-4%	1%	3%	-10%	-3%
CCN(CC)S(=O)(=O)c1ccc(N2CCN(c3ccccc3OC)CC2)c(N)c1	28%	9.2µM*	8%	-10%	7.3µM*
COc1ccc(S(=O)(=O)N(CC(=O)N2CCc3ccccc3C2)c2ccc(C)cc2)cc1	0%	u	x	x	u
COc1ccccc1N(CC(=O)N1CCN(Cc2ccccc2)CC1)S(=O)(=O)c1ccccc1	x	23µM*	x	x	16µM*
COc1ccc(N(CC(=O)N2CCN(Cc3ccccc3)CC2)S(=O)(=O)c2ccccc2)cc1	1%	u	4%	-3%	u
CN(C(=O)C(C)(C)C)c1ccc(OCC(=O)N2CCc3ccccc3C2)cc1	24%	u	x	-10%	16µM*
COc1ccc(N(CC(=O)N2CCc3ccccc3C2)S(=O)(=O)c2ccccc2)cc1	-11%	18µM*	3%	8%	18µM*
CC(C)CNC(=O)c1cc(S(=O)(=O)N2CCOCC2)ccc1N1CCCC1	-2%	1%	1%	3%	6%
COc1ccc(OC)c(-c2cc(C(=O)Nc3cccc(Cl)c3C)no2)c1	-20%	-16%	-2%	x	-28%
COc1ccccc1N1CCN(C(=O)CN(CCc2ccccc2)S(C)(=O)=O)CC1	2%	u	2%	-17%	10µM*

An excerpt of these results, with bars between the fields:
Molecule | miR-21 reporter | TDP1 cell CPT | TDP1 inh | uPA surface inh | DT40 TDP1 no CPT
COc1ccccc1N(CC(=O)N1CCCC1)S(=O)(=O)c1ccc(C)cc1 | 1% | -2% | 0% | 0% | -23%
COc1ccc(N2CCN(C(=O)CN(c3ccc(OC)cc3)S(=O)(=O)c3ccccc3)CC2)cc1 | -2% | 13µM* | 10% | -7% | 23µM*

Random excerpt: 2 compounds from above.
SMILES	miR-21 reporter	TDP1 cell CPT	TDP1 inh	uPA surface inh	DT40 TDP1 no CPT
COc1ccc(S(=O)(=O)N(C)CC(=O)N2CCN(c3ccccc3)CC2)cc1	2%	-7%	x	-1%	-23%
COc1ccc(S(=O)(=O)N(C)CC(=O)N2CCN(c3ccc(F)cc3)CC2)cc1OC	-5%	u	6%	x	22µM*
